Data on 65 molecules can be found in PubChem BioAssay AID2029 (NMMLSC, 2009).

The entries are a selection whose mix differs from that of the whole data set. Active and inactive are the calls of the source.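 How the source made its calls: active means GFP response relative to DMSO above a set limit, near the screen mean plus 3 SD (cut at about 150% in these data); inconclusive means Fewer than 70 cells measured for a yeast strain; inactive means the rest.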

The nature of this assay: TOR pathway RTG branch CIT2 reporter changes – S. cerevisiae, GFP fusion, multiplex flow cytometry, MLPCN library, primary screen (AID 2029).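 Further: ratio of well median GFP fluorescence to mean of DMSO wells on the plate.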 The settings on record: S. cerevisiae CIT2-GFP strain, 3 h, at 10 µM, hits give high values, 100 means same as DMSO wells.
As for `CCCOc1ccc(C(=O)NCC2(N(C)C)CCCCC2)cc1OC`, the GFP response vs DMSO was inactive: 88.2%.

With `O=C(NCC1(N2CCCCC2)CCCCC1)c1cncc(Br)c1`, the GFP response vs DMSO was inactive: 112%.

`CN1CCC(Nc2cccc(F)c2)CC1`: the GFP response vs DMSO is inactive: 107%.

Take `COc1cc(OC)c(C(=O)NCC2(N(C)C)CCCCC2)cc1OC`: the GFP response vs DMSO was inactive: 98.4%.

As to `O=C(NCC1(N2CCOCC2)CCCCC1)c1cc(F)c(F)cc1Cl`, the GFP response vs DMSO was inactive: 93.3%.

As for `CC(C)c1ccc(NC2CCN(C(=O)OC(C)(C)C)CC2)cc1`, the GFP response vs DMSO was inactive: 97.5%.

With `COc1ccc(CN(CCCl)CCCl)cc1Cl`, the GFP response vs DMSO is inactive: 92.6%.

On to `CN(C)c1cccc(C(=O)NCC2(N3CCCCC3)CCCCC2)c1`, for which the GFP response vs DMSO is inactive: 106%.

As to `COc1cc(C(=O)NCC2(N3CCCCC3)CCCCC2)ccc1OC(F)F`, the GFP response vs DMSO was inactive: 98.8%.

As to `O=C(NCC1(N2CCOCC2)CCCCC1)c1cc(=O)[nH]c2ccccc12`, the GFP response vs DMSO is inactive: 93.4%.

For `CN1CCN(CCOC(=O)C(O)(c2ccccc2)c2ccccc2)CC1`, the GFP response vs DMSO was inactive: 102%.

Take `COc1ccc(NC2CCN(C(=O)OC(C)(C)C)CC2)cc1`: the GFP response vs DMSO is inactive: 98.8%.

Take `O=C(NCC1(N2CCCCC2)CCCCC1)c1cccc(C(F)(F)F)c1`: the GFP response vs DMSO is inactive: 108%.

With `CCN1CCC(Nc2ccc(Cl)cc2)CC1`, the GFP response vs DMSO is inactive: 102%.

On to `N#CC1(Nc2ccccc2)CCN(CCc2ccccc2)CC1`, for which the GFP response vs DMSO is inactive: 114%.

For `O=C(NCC1(N2CCCCC2)CCCCC1)c1cccc([N+](=O)[O-])c1`, the GFP response vs DMSO was inactive: 112%.

Take `O=C(NCC1(N2CCCCC2)CCCCC1)c1ccc(OC(F)F)cc1`: the GFP response vs DMSO is inactive: 104%.

As to `COc1cc(C(=O)NCC2(N(C)C)CCCCC2)ccc1OC(F)F`, the GFP response vs DMSO is inactive: 84.8%.

`CCOC(=O)N1CCC(Nc2cccc(C)c2)CC1`: the GFP response vs DMSO is inactive: 107%.

On to `Cc1ccc(OCC(C)C)c(CN(CCCl)CCCl)c1`, for which the GFP response vs DMSO was inactive: 102%.

With `O=C(NCC1(N2CCCCC2)CCCCC1)c1ccc(F)cc1`, the GFP response vs DMSO was inactive: 97%.

`COc1ccc(NC2CCN(CCc3ccccc3)CC2)c(OC)c1`: the GFP response vs DMSO is inactive: 107%.

Consider `CCOC(=O)N1CCC(Nc2ccc(F)cc2)CC1`, for which the GFP response vs DMSO is inactive: 102%.

`CCOc1ccc(C)cc1CN(CCCl)CCCl`: the GFP response vs DMSO is inactive: 93.9%.

For the molecule `O=C(OC1CN2CCC1CC2)C1c2ccccc2Oc2ccccc21` (stereo not given), the GFP response vs DMSO was inactive: 102%.

For `O=C(NCC1(N2CCCCC2)CCCCC1)c1ccc(Cl)s1`, the GFP response vs DMSO was inactive: 89.9%.

Take `N#CC1(Nc2ccccc2)CCN(Cc2ccccc2)CC1`: the GFP response vs DMSO is inactive: 105%.

As to `COc1ccc(Cl)cc1C(=O)NCC1(N2CCOCC2)CCCCC1`, the GFP response vs DMSO is inactive: 95.9%.

For the molecule `CCOC(=O)N1CCC(Nc2ccc(OC)cc2)CC1`, the GFP response vs DMSO was inactive: 104%.

As for `O=C(NCC1(N2CCCCC2)CCCCC1)c1ccc(Cl)nc1`, the GFP response vs DMSO is inactive: 99.3%.

For `Cc1cc(C)cc(N(C(=O)c2ccccc2)C2CCN(C(=O)OC(C)(C)C)CC2)c1`, the GFP response vs DMSO is inactive: 93.7%.

Turning to `O=C(NCC1(N2CCOCC2)CCCCC1)c1cc2ccccc2o1`, the GFP response vs DMSO was inactive: 100%.

On to `CSc1ccccc1C(=O)NCC1(N2CCCCC2)CCCCC1`, for which the GFP response vs DMSO is inactive: 94.4%.

As for `COc1ccc(C(=O)NCC2(N3CCCCC3)CCCCC2)cc1`, the GFP response vs DMSO is inactive: 102%.

For the molecule `COc1ccc(C(=O)NCC2(N3CCCCC3)CCCCC2)c(OC)c1OC`, the GFP response vs DMSO was inactive: 89.7%.

Turning to `O=C(NCC1(N2CCCCC2)CCCCC1)c1ccc(=O)[nH]c1`, the GFP response vs DMSO was inactive: 97.3%.

For `O=C(NCC1(N2CCCCC2)CCCCC1)c1cccs1`, the GFP response vs DMSO was inactive: 105%.

For the molecule `CN1CCC(Nc2ccc(Cl)cc2)CC1`, the GFP response vs DMSO is inactive: 103%.

With `CCCOc1ccc(C)cc1CN(CCCl)CCCl`, the GFP response vs DMSO was inactive: 92.7%.

`COc1cc(OC)cc(C(=O)NCC2(N3CCOCC3)CCCCC2)c1`: the GFP response vs DMSO was inactive: 95.3%.

For the molecule `COc1cccc(C(=O)N(c2cc(C)cc(C)c2)C2CCN(C(=O)OC(C)(C)C)CC2)c1`, the GFP response vs DMSO was inactive: 96.9%.

In the case of `CCC(CO)(C(=O)OC1CN2CCC1CC2)c1ccccc1` (stereo not given), the GFP response vs DMSO was inactive: 105%.

Turning to `CC(C)(C)OC(=O)N1CCC(Nc2ccccc2)CC1`, the GFP response vs DMSO was inactive: 85.4%.

Consider `O=C(O)C1(Nc2ccccc2)CCN(Cc2ccccc2)CC1`, for which the GFP response vs DMSO is inactive: 108%.

In the case of `CCCOc1ccc(C(=O)NCC2(N(C)C)CCCCC2)cc1`, the GFP response vs DMSO was inactive: 99.9%.

Turning to `CCOc1ncccc1C(=O)NCC1(N2CCOCC2)CCCCC1`, the GFP response vs DMSO is inactive: 98.4%.

In the case of `CN1CCC(Nc2ccc(F)c(Cl)c2)CC1`, the GFP response vs DMSO is inactive: 106%.

`O=C(NCC1(N2CCCCC2)CCCCC1)c1ccco1`: the GFP response vs DMSO is inactive: 99.9%.

For the molecule `CN(C)c1ccc(C(=O)NCC2(N3CCCCC3)CCCCC2)cc1`, the GFP response vs DMSO is inactive: 101%.

For `CCN1CCC(Nc2cccc(F)c2)CC1`, the GFP response vs DMSO was inactive: 95.3%.

Take `Cc1ccc(C(=O)NCC2(N3CCCCC3)CCCCC2)o1`: the GFP response vs DMSO was inactive: 101%.

For the molecule `Fc1ccccc1NC1CCN(Cc2ccccc2)CC1`, the GFP response vs DMSO was inactive: 98.1%.

Regarding `COc1cc(OC)cc(C(=O)NCC2(N3CCCCC3)CCCCC2)c1`, the GFP response vs DMSO is inactive: 102%.

For the molecule `CN(C)C1(CNC(=O)c2cccc(C#N)c2)CCCCC1`, the GFP response vs DMSO is inactive: 109%.

Take `c1ccc(CN2CCC(Nc3ccccc3)CC2)cc1`: the GFP response vs DMSO was inactive: 99.6%.

For the molecule `CCCN1CCC(Nc2cc(OC)cc(OC)c2)CC1`, the GFP response vs DMSO is inactive: 104%.

Regarding `N#Cc1ccc(C(=O)NCC2(N3CCCCC3)CCCCC2)cc1`, the GFP response vs DMSO was inactive: 114%.

With `CC(C)(C)OC(=O)N1CCC(N(C(=O)c2ccccc2)c2ccc(Cl)cc2)CC1`, the GFP response vs DMSO was inactive: 105%.

In the case of `O=C(OC1CN2CCC1CC2)C1c2ccccc2C=Cc2ccccc21` (stereo not given), the GFP response vs DMSO is inactive: 106%.

Turning to `CCc1cc(C(=O)NCC2(N3CCCCC3)CCCCC2)sc1C`, the GFP response vs DMSO was inactive: 94.4%.

`CCOC(=O)N1CCC(Nc2ccc(C)cc2)CC1`: the GFP response vs DMSO was inactive: 100%.

Turning to `N/C(=N\O)c1c(N)no[n+]1[O-]`, the GFP response vs DMSO is inactive: 99.4%.

Take `COc1ccc(C(=O)NCC2(N3CCOCC3)CCCCC2)cc1OC`: the GFP response vs DMSO is inactive: 95.1%.

Consider `COc1cc(C(=O)NCC2(N3CCOCC3)CCCCC2)cc(OC)c1C`, for which the GFP response vs DMSO is inactive: 103%.

For the molecule `O=C(NCC1(N2CCOCC2)CCCCC1)c1cc(Br)ccc1Cl`, the GFP response vs DMSO is inactive: 92.8%.
